Molecular target: CB1R (Mus musculus, UniProt P47746)
Assay: Brain CB1R occupancy by CB1R PET
Assay type: in vivo
Settings: 3 mg/kg

Sequences of proteins named here, by UniProt entry; tags and fusion partners are left off.
UniProt P47746, whole entry: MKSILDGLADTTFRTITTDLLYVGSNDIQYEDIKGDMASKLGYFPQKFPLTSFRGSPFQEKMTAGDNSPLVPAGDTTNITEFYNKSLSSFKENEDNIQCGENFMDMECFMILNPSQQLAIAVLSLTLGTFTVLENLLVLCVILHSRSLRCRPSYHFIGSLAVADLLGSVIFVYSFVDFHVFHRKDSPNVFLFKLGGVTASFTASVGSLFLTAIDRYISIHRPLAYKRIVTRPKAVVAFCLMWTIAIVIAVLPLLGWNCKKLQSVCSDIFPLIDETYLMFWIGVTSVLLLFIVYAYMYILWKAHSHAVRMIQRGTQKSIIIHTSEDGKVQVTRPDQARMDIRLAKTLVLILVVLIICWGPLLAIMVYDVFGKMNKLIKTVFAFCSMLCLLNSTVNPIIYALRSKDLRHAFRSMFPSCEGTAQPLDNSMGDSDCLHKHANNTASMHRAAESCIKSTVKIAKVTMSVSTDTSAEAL

Structure (SMILES): Cc1c(C(=O)NN2CCCCC2)nn(-c2ccc(Cl)cc2Cl)c1-c1ccc(Cl)cc1 [rimonabant, reference compound]
- displacement of a CB1R PET ligand in brain: significant, marked displacement

Source: article PMC4979564 (JCI insight, 2016)
